From ChEMBL document CHEMBL1152685, “Structural basis of the selectivity of the beta(2)-adrenergic receptor for fluorinated catecholamines” (Bioorg Med Chem, 2009)

Tests used:
Format in all cases: cell-based
[1] = tested on: Beta-2 adrenergic receptor (Homo sapiens), P07550 [N293L]; assay: Displacement of [3H]prazosin from human adrenergic beta2 receptor N293L mutant expressed in CHO cell membrane relative to wild type
[2] = tested on: Beta-2 adrenergic receptor (Homo sapiens), P07550 [D192G,F193V]; assay: Displacement of [3H]prazosin from human adrenergic beta2 receptor D192G, F193V mutant expressed in CHO cell membrane relative to wild type
[3] = tested on: Beta-2 adrenergic receptor (Homo sapiens), P07550 [T164I]; assay: Displacement of [3H]prazosin from human adrenergic beta2 receptor T164I mutant expressed in CHO cell membrane relative to wild type
[4] = tested on: Beta-2 adrenergic receptor (Homo sapiens), P07550 [N293A]; assay: Displacement of [3H]prazosin from human adrenergic beta2 receptor N293A mutant expressed in CHO cell membrane relative to wild type
[5] = tested on: Beta-2 adrenergic receptor (Homo sapiens), P07550 [N293Q]; assay: Displacement of [3H]prazosin from human adrenergic beta2 receptor N293Q mutant expressed in CHO cell membrane relative to wild type
[6] = tested on: Beta-2 adrenergic receptor (Homo sapiens), P07550 [V117C]; assay: Displacement of [3H]prazosin from human adrenergic beta2 receptor V117C mutant expressed in CHO cell membrane relative to wild type
[7] = tested on: Beta-2 adrenergic receptor (Homo sapiens), P07550 [N293F]; assay: Displacement of [3H]prazosin from human adrenergic beta2 receptor N293F mutant expressed in CHO cell membrane relative to wild type

Question: Which results are given for NC[C@H](O)c1cc(O)c(O)cc1F?
Answer: Ratio Ki [1]: 7.4; Ratio Ki [2]: 1.2; Ratio Ki [3]: 2.4; Ratio Ki [4]: 20.2; Ratio Ki [5]: 4.3; Ratio Ki [6]: 2.5; Ratio Ki [7]: 13.5
